Here are results for one compound from PMC12101129, “An optimized CYP3A4-activatable fluorogenic sensor for in situ functional imaging and multi-dimensional inhibitor assessment” (Chemical Science, 2025).

In this data set the test system is Hep3B cells. Nature of the data set: CCK-8 cytotoxicity assay. Type of data set: cell-based. A general note: Tetrazolium dyes change colour on reduction, which living cells bring about.

As for `CC(=O)N1CCN(c2ccc(OCC3COC(Cn4ccnc4)(c4ccc(Cl)cc4Cl)O3)cc2)CC1` (stereo not shown) [KCZ, ketoconazole], the cytotoxicity result is listed as “minimal cytotoxicity”.
